Experimental data as given in PubChem BioAssay AID488965 (Broad Institute, 2010).
This is a selection; strong and weak results do not stand in their true shares. Active and inactive are the calls of the source. Rule as the data show it: active = inhibition above about 30% (passing the limit was not always enough); inconclusive = no clear call, values can overlap the other calls.

Tested on: PvdQ acylase [Pseudomonas aeruginosa LESB58]
Assay: P. aeruginosa PvdQ acylase inhibitors, primary screen, biochemical, fluorescence, plate reader and imaging, single point (AID 488965);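 also: 0% = vehicle neutral wells and 100% = reference inhibitor wells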
Settings: purified PvdQ acylase, at 10 µM, active compounds read high

Compound	inhibition
O=C(OC1CN2CCC1CC2)c1cccc(Cl)c1 (stereo not given)	inactive: -12.5%
C(Cc1nn[nH]n1)Cc1nn[nH]n1	inactive: 2.91%
Nc1ccc([As](=O)(O)c2ccc([N+](=O)[O-])cc2)cc1	inactive: -8.61%
O=[As](O)(c1ccccc1)c1ccc(O)cc1	inactive: 9.8%
O=[N+]([O-])c1ccc(O)c(/C=N/Nc2ccc([N+](=O)[O-])cc2[N+](=O)[O-])c1	inactive: -17.4%
CC(=O)NC(SC(=S)N(C)C)C(Cl)(Cl)Cl (stereo not given)	inactive: 4.88%
O=[N+]([O-])c1ncn(CCn2cnc([N+](=O)[O-])n2)n1	inactive: 2.36%
C[C@H]1OP(=O)(Oc2ccccc2)[C@H](O)[C@H](O)[C@H]1N=[N+]=[N-] (stereo not given in full)	inactive: -3.94%
O=P(Nc1nc2ccccc2s1)(c1ccccc1)c1ccccc1	inactive: -3.41%
O=P(Nc1ccccn1)(c1ccc(Br)cc1)c1ccc(Br)cc1	inactive: -13.7%
CN(C)C1(CNC(=O)c2ccc(Cl)c(S(N)(=O)=O)c2)CCCCC1	inactive: -9.64%
COc1ccc(N)c([N+](=O)[O-])c1[N+](=O)[O-]	inactive: 4.18%
c1nnnn1CCn1cnnn1	inactive: -5.31%
CC(C)C(=O)NC(Sc1ccccc1)C(Cl)(Cl)Cl (stereo not given)	inactive: 2.31%
O=P(Nc1nccs1)(c1ccccc1)c1ccccc1	inactive: -11.7%
CC(=O)Nc1ccc(Oc2c([N+](=O)[O-])cc([N+](=O)[O-])cc2[N+](=O)[O-])cc1	inactive: -0.893%
CC(=O)Nc1ccc([As](=O)(O)O)c(O)c1	inactive: -7.37%
C[C@H]1OP(=O)(Oc2ccccc2)C[C@@H]2O[C@@H]21 (stereo not given in full)	inactive: -9.04%
C[C@@H]1C=CCP(=O)(Oc2ccccc2)O1 (stereo not given in full)	inactive: -6.03%
Cc1ccccc1CN(C)C(=O)COC(=O)C(O)(c1ccccc1)c1ccccc1	inactive: 8.83%
COC(=O)C1(C)COP(=O)(NCc2ccccc2)OC1 (stereo not given)	inactive: -4.86%
CC(=O)c1ccc(N2CC2c2ccncc2)cc1 (stereo not given)	inactive: -11.9%
N#C/C(=C\c1ccc(N(CCBr)CCBr)cc1)C(N)=O	inactive: -2.64%
CC(C)(C)C(=O)NC(Sc1ccccc1)C(Cl)(Cl)Cl (stereo not given)	inactive: -12.6%
CCc1cc(O)c([N+](=O)[O-])c(C)c1[N+](=O)[O-]	inactive: -14.8%

Compound	inhibition
CCOc1ccc(C2=NCC(CBr)S2)cc1 (stereo not given)	inactive: 3.4%
O=P1(Nc2nc3ccc(Cl)cc3s2)COc2ccccc2O1 (stereo not given)	inactive: -14.1%
O=c1c2cc([N+](=O)[O-])ccc2[nH]c2c([N+](=O)[O-])cc([N+](=O)[O-])cc12	inactive: -10.6%
CN(C)C(=O)Oc1noc2ccccc12	inactive: -1.43%
CC(NC(=O)COC(=O)C(O)(c1ccccc1)c1ccccc1)c1ccccc1 (stereo not given)	inactive: -11.1%
Cc1ccccc1OP(=O)(Nc1ccccn1)Oc1ccccc1C	inactive: 6.49%
CCC(=O)N1C2C3N(C(=O)CC)C1C1N(C(=O)CC)C(C(N1C(=O)CC)N3C(=O)CC)N2C(=O)CC	inactive: -11.2%
O=C(OC1CN2CCC1CC2)c1ccccc1 (stereo not given)	inactive: -12.2%
CC(=O)NC(SC(=S)N(CC(C)C)CC(C)C)C(Cl)(Cl)Cl (stereo not given)	inactive: -10.6%
Cc1ccc(OP(=O)(Nc2ccccn2)Oc2ccc(C)cc2)cc1	inactive: -3.67%
COC(=O)c1cc2c(s1)N=C(c1ccccc1)N(C)P2(=O)N1CCOCC1 (stereo not given)	inactive: -10.7%
O=P1(N(CCCl)CCCl)OCCC2CCCCN21 (stereo not given)	inactive: -19.8%
Cc1ccc(NP(=O)(Oc2cccc(C)c2)Oc2cccc(C)c2)nc1	inactive: -8.39%
c1ccc(-c2nn[nH]n2)c(-c2nn[nH]n2)c1	inactive: 0.834%
CCNC(=S)/N=C(\N)N[N+](=O)[O-]	inactive: -2.32%
O=C(NC1CCS(=O)(=O)C1)NP(=S)(Oc1ccccc1)Oc1ccccc1 (stereo not given)	inactive: -3.08%
Nc1cccc2ccc([As](=O)(O)O)cc12	inactive: -2.61%
CCN(N=Nc1nonc1N)c1nonc1N	inactive: -1.32%
Cc1ccc(NP(=O)(Oc2ccccc2F)Oc2ccccc2F)nc1	inactive: -10.5%
CN(C(=O)Cc1ccc(Cl)c(Cl)c1)[C@H]1CCCC[C@@H]1N1CCCC1	inactive: -7.52%
Cc1cc(SC(NC(=O)c2ccc(F)cc2)C(Cl)(Cl)Cl)ncn1 (stereo not given)	inactive: 3.19%
CCOP(=O)(Nc1ccccc1)OCC	inactive: -14.5%
O=P(Nc1nc2ccc(Cl)cc2s1)(c1ccccc1)c1ccccc1	inactive: -5.9%
CCCC1OP(N)(=O)OCC1CC (stereo not given)	inactive: -7.9%
CC(=O)Nc1ccc([As](=O)(O)O)cc1	inactive: -16.1%

Compound	inhibition
O=C(O)c1ccccc1[As](=O)(O)O	inactive: 1.8%
O=C(NC(Sc1ccncn1)C(Cl)(Cl)Cl)c1ccccc1 (stereo not given)	inactive: 0.978%
Oc1ccccc1CNc1ccccn1	inactive: 2.49%
Nc1cc(N)c2nonc2c1[N+](=O)[O-]	inactive: -4.29%
CC(C)CC(=O)NC(Sc1ccc(Cl)cc1)C(Cl)(Cl)Cl (stereo not given)	inactive: 2.23%
CN1CCCC(OC(=O)C(c2ccccc2)c2ccccc2)C1 (stereo not given)	inactive: -3.72%
Clc1ccc(Cl)c(NC2=NCC(CBr)S2)c1 (stereo not given)	inactive: 18.6%
COc1ccccc1OP(=O)(Nc1ccc(C)cn1)Oc1ccccc1OC	inactive: 9.17%
Cc1ccc(N/C(=N/P(=O)(N2CCOCC2)N2CCOCC2)N2CCOCC2)cc1	inactive: -3.73%
CN(C(=O)Cc1ccc(Cl)c(Cl)c1)[C@H]1CCCC[C@H]1N1CCCC1	inactive: -5.92%
NC(=O)c1cc([N+](=O)[O-])cc([N+](=O)[O-])c1N	inactive: -13%
CC1CCN(C(=O)Oc2c(Cl)cc(Cl)c3cccnc23)CC1	inactive: -10.4%
CN(C)C(=O)OCCc1n(C)cc[n+]1C	inactive: -4.53%
CC(C)=N/N=C(\N)N[N+](=O)[O-]	inactive: -15.3%
CCN(/C(=N/P(=O)(N1CCOCC1)N1CCOCC1)N1CCOCC1)c1ccc(OC)cc1	inactive: -8.27%
C[N+]1=C2C=CC=CC=C2SC12C([N+](=O)[O-])=CC([N+](=O)[O-])=C[C-]2[N+](=O)[O-] (stereo not given)	inactive: -1.47%
Nc1ccc([As](=O)(O)c2ccc(N)cc2)cc1	inactive: 0.22%
CCc1nc2c(n1)c1c(non1O)c1c2no[n+]1[O-]	inactive: -2.64%
O=[N+]([O-])c1cc([N+](=O)[O-])c(CCNc2ccccc2)c([N+](=O)[O-])c1	inactive: -4.19%
Cc1ccc(NP(=O)(Oc2ccccc2)Oc2ccccc2)nc1	inactive: -7.96%
O=[N+]([O-])c1cccc2n[nH]nc12	inactive: -5.12%
CC(=O)N1C2C3N(C(C)=O)C1C1N(C(C)=O)C(C(N1C(C)=O)N3C(C)=O)N2C(C)=O	inactive: -16.9%
COc1ccc(C2=NCC(CBr)S2)cc1 (stereo not given)	inactive: -10%
O=C(O)CNc1ccc([As](=O)(O)O)cc1	inactive: -9.09%
COC(=O)C1(C)COP(=O)(Nc2ccccc2)OC1 (stereo not given)	inactive: -13.7%

Compound	inhibition
O=[N+]([O-])c1ncn(CCn2ncnc2[N+](=O)[O-])n1	inactive: 7.65%
CC(C)(C)C(=O)NC(Sc1ccncn1)C(Cl)(Cl)Cl (stereo not given)	inactive: -7.22%
O=C(Nc1cc([As](=O)(O)O)ccc1O)c1ccccc1	inactive: -14.1%
O=P1(N(CCCl)CCCl)OCCCS1 (stereo not given)	inactive: -5.83%
O=P(Nc1ccccn1)(c1cccc2ccccc12)c1cccc2ccccc12	inactive: -9.99%
Cc1cc(SC(NC=O)C(Cl)(Cl)Cl)ncn1 (stereo not given)	inactive: 2.37%
O=[N+]([O-])c1ccc(Nc2ccc(Oc3ccc([N+](=O)[O-])cc3[N+](=O)[O-])cc2)c([N+](=O)[O-])c1	inactive: -16.4%
CCOC(=O)Nc1cccc([As](=O)(O)O)c1	inactive: 11.3%
Cc1cc(SC(NC(=O)c2ccccc2)C(Cl)(Cl)Cl)nc(C(C)C)n1 (stereo not given)	inactive: 6.14%
CCCCOc1ccc(C(=O)NCC2(N3CCCCC3)CCCCC2)cc1OC	inactive: -11.1%
CCOC(=O)Nc1ccc([As](=O)(O)O)c(O)c1	inactive: -11.9%
CC1CCNP(=O)(N(CCCl)CCCl)O1 (stereo not given)	inactive: -4.88%
CCC(C)N(CC(C)C)C(=S)SC(NC(C)=O)C(Cl)(Cl)Cl (stereo not given)	inactive: -11.2%
O=C(OC1CN2CCC1CC2)c1cccc([N+](=O)[O-])c1 (stereo not given)	inactive: -15.8%
CCOC(=O)c1ccc(NC(=O)C(C)(CCl)SC)cc1 (stereo not given)	inactive: -10.3%
O=C(Nc1ccncc1[N+](=O)[O-])c1ccc([N+](=O)[O-])cc1[N+](=O)[O-]	inactive: -5.27%
O=C(COc1ccccc1)OC1CN2CCC1CC2 (stereo not given)	inactive: -14.3%
COP1(=S)c2c(C)nn(CCC#N)c2N=C(c2ccc(F)cc2)N1C (stereo not given)	inactive: -12.9%
O=[N+]([O-])c1cc(Oc2ccc([N+](=O)[O-])cc2C(F)(F)F)cc([N+](=O)[O-])c1	inactive: 21.9%
COc1ccc(N/C(=N/P(=O)(N2CCOCC2)N2CCOCC2)N2CCOCC2)cc1	inactive: -12.7%
O=P1(N(CCCl)CCCl)OCCCN1CCCl (stereo not given)	inactive: -3.8%
O=P1(N(CCCl)CCCl)Nc2ccccc2N1	inactive: 4.92%
COc1cc(I)ccc1[As](=O)(O)O	inactive: -9.04%
COc1ccc2nc(NP(=O)(c3ccccc3)c3ccccc3)sc2c1	inactive: -15.1%
Cc1c2c(nc3ccccc13)SC(C(Cl)Cl)C2 (stereo not given)	inactive: -3.98%
